Assays:
RAW264.7 cells = experiment: Anti-inflammatory activity assay in cells (LPS-induced IL-1β content, ELISA); conditions: LPS 100 ng/mL, 24 h
Protocol: • 1.1 Cells: RAW264.7 cells, purchased from PROCELL, lot No.: JYBR1POD9R. • 1.2 Reagents: Lipopolysaccharide (LPS), purchased from SIGMA; DMEM cell culture medium, purchased from GIBCO; Mouse IL-1β ELISA Kit, purchased from Ruixin Bio.
RAW264.7 cells were seeded into a 96-well plate at 1×10^5 cells/well, with 100 µL of cell suspension added to each well. 50 µL of drugs at corresponding gradient concentrations (0.00128, 0.0064, 0.032, 0.16, 0.8, 4, 20, and 100 µM, respectively) were added to the wells of the test groups (Compounds 1 to 27) and the control drug groups (glycyrrhetinic acid and Comparative Compounds 1 to 10). The corresponding volume of culture medium was added to the wells of the blank control group and the model group. After 1 h of incubation, 50 µL of LPS (final LPS concentration of 100 ng/mL) was added to the wells of the model group, the control drug groups, and the test groups. After incubation in an incubator at 37°C and 5% CO2 for 24 h, the supernatant was collected by centrifugation at 1000 rpm for 5 min. The IL-1β content was determined according to the instructions of the kit, and the IC50 values were calculated.

guinea pigs = experiment: Inhibitory activity assay against ear swelling in guinea pigs (DMSO/ethanol inflammatory agent); conditions: topical, 200 µL per ear; test compounds and glycyrrhetinic acid 40 mg/mL in absolute ethanol; hydrocortisone butyrate cream 1 mg/g; 45 min after modeling
From the text: • 2.1 Animals: Ordinary grade guinea pigs, weighing about 300 g. • 2.2 Reagents: Inflammatory agent made from 80% dimethyl sulfoxide (DMSO) and 20% absolute ethanol; DMSO; absolute ethanol, analytical grade.
Ordinary grade guinea pigs were randomly divided into groups, with 10 animals in each group, half male and half female. The inner and outer sides of the left and right ears of the guinea pigs were shaved, and 4 points were marked on the medial side of the left ear margin. The thickness of these 4 points on the auricle of the guinea pigs was measured using a vernier caliper, and the average value was obtained as the baseline before administration. The corresponding drugs were applied dropwise to the auricles of the guinea pigs in each test group (Compound 1, Compound 2, Compound 3, Compound 9, Compound 16, Compound 17, Compound 18, Compound 21) and the glycyrrhetinic acid group, with 200 µL per ear. The blank control group and the model group were treated with the corresponding volume of absolute ethanol only. The positive control hydrocortisone butyrate group was treated with an equal volume of hydrocortisone butyrate cream. After 30 min of administration, the drugs were wiped off. The animals in the model group and the test groups were treated with the inflammatory agent on both sides of the left auricle (50 µL per ear). The blank control group was treated with the corresponding volume of normal saline only. At 45 min after modeling, the thickness of these 4 points was measured using a vernier caliper, and the average value was obtained. The difference was calculated as the ear swelling value of the guinea pigs. Inhibition rate of swelling value = (Swelling value of the model group - Swelling value of the sample group) / Swelling value of model group × 100%, wherein the sample group includes each test group, glycyrrhetinic acid group, and positive control hydrocortisone butyrate group.
• Test compounds and glycyrrhetinic acid: Dissolved in absolute ethanol to prepare a solution with a concentration of 40 mg/mL. • Positive control: Commercially available hydrocortisone butyrate cream (from Hubei Heng'an Fulin Pharmaceutical Co., Ltd., specification: 1 mg/g).

ICR mice = experiment: Inhibitory activity assay against ear swelling in ICR mice (phorbol ester, TPA); conditions: right ear, test compounds 3% cream, pimecrolimus cream 10 mg/g, compound dexamethasone acetate cream 0.75 mg/g, 50 µL
Protocol: • ICR mice, male, 20±2 g. • 3.2 Reagents: Inflammatory agent (phorbol ester (TPA)).
ICR mice were randomly divided into groups, with 8 mice in each group. The thickness of the right ear of each animal was measured using a micrometer. Subsequently, except for the blank control group, all mice in other groups were administered 20 µL of 0.03% TPA on both the inner and outer sides of the right ear (10 µL per side) to induce inflammation. The mice were dosed once at 1 h before modeling and 1 h after modeling, respectively. The test groups (Compound 1, Compound 16) received a dose volume of 50 µL each time. The blank control group and the model group (with matrix) were treated with the corresponding volumes of blank matrix (pimecrolimus cream matrix). The positive control group was treated with an equal volume of pimecrolimus cream or compound dexamethasone acetate cream. Before modeling, the ears should be cleaned prior to TPA application. Ear thickness measurement: The thickness of the right ear was measured at 0 h, 2 h, 4 h, and 6 h after TPA induction.
• Test compounds: The formulations were prepared with reference to pimecrolimus cream (from MEDA Manufacturing) (test compound concentration: 3%). • Positive control: Commercially available compound dexamethasone acetate cream (from China Resources Sanjiu Medical & Pharmaceutical Co., Ltd., specification: 0.75 mg/g); commercially available pimecrolimus cream (from MEDA Manufacturing, specification: 10 mg/g).

BALB/c mice = experiment: Chloroquine-induced pruritus in mice; conditions: 100 mg once daily for 3 days, test compounds 3% cream, pimecrolimus cream 10 mg/g
Protocol: • 6.1 Animals: Balb/c mice, female. • 6.2 Reagents: Chloroquine; normal saline.
After 3 days of adaptive feeding, 50 female Balb/c mice were randomly divided into groups, with 10 mice in each group. The hair on a 2×3 cm^2 area of the back of each mouse was completely removed using depilatory cream. Except for the blank control group, the test groups (Compound 1, Compound 16) and the model group were treated with the corresponding drugs or matrix (pimecrolimus cream matrix) at the depilated site, 100 mg per time, once daily for 3 consecutive days. The positive control group was treated with the corresponding weight of pimecrolimus cream. Thirty minutes after the last administration, chloroquine (40 mg/kg) was injected subcutaneously. The blank control group was injected subcutaneously with the corresponding volume of normal saline only. The number of scratching bouts within 20 min after chloroquine injection was recorded.
• Test compounds: The formulations were prepared with reference to pimecrolimus cream (test compound concentration: 3%). • Positive control: Commercially available pimecrolimus cream (from MEDA Manufacturing, specification: 10 mg/g).

Structure (SMILES)	IC50 (RAW264.7 cells)	further results
CN(C)CCOC(=O)[C@@]1(C)CC[C@]2(C)CC[C@]3(C)C(=CC(=O)[C@@H]4[C@@]5(C)C=C(C#N)C(=O)C(C)(C)[C@@H]5CC[C@]43C)[C@@H]2C1	0.02 to 0.1 µM	–
CN(C)CCOC(=O)[C@@]1(C)CC[C@]2(C)CC[C@]3(C)C(=CC(=O)[C@@H]4[C@@]5(C)CCC(=O)C(C)(C)[C@@H]5CC[C@]43C)[C@@H]2C1	> 1 µM	–
CC1(C)C(=O)C(Br)=C[C@]2(C)[C@H]3C(=O)C=C4[C@@H]5C[C@@](C)(C(=O)O)CC[C@]5(C)CC[C@@]4(C)[C@]3(C)CC[C@@H]12	0.1 to 1 µM	–
CC1(C)[C@@H](O)CC[C@]2(C)[C@H]3C(=O)C=C4[C@@H]5C[C@@](C)(C(=O)O)CC[C@]5(C)CC[C@@]4(C)[C@]3(C)CC[C@@H]12	> 1 µM	Ear swelling inhibition rate (guinea pigs): C (40% or less)
CC[C@@H]1/C=C(\C)C[C@H](C)C[C@H](OC)[C@H]2O[C@@](O)(C(=O)C(=O)N3CCCC[C@H]3C(=O)O[C@H](/C(C)=C/[C@@H]3CC[C@H](Cl)[C@H](OC)C3)[C@H](C)[C@@H](O)CC1=O)[C@H](C)C[C@@H]2OC	–	Thickness (ICR mice; 0 h after TPA induction): 0.211 ± 0.008 mm; Thickness (ICR mice; 2 h after TPA induction): 0.268 ± 0.035 mm; Thickness (ICR mice; 4 h after TPA induction): 0.32±0.035 mm; Thickness (ICR mice; 6 h after TPA induction): 0.339±0.046 mm; Number of scratching bouts (BALB/c mice; 0-10 min after chloroquine 40 mg/kg s.c.): 22±9; Number of scratching bouts (BALB/c mice; 0-20 min after chloroquine 40 mg/kg s.c.): 44+12; Number of scratching bouts (BALB/c mice; 10-20 min after chloroquine 40 mg/kg s.c.): 22±6
CCN(CC)CCOC(=O)[C@@]1(C)CC[C@]2(C)CC[C@]3(C)C(=CC=C4[C@@]5(C)C=C(C#N)C(=O)C(C)(C)[C@@H]5CC[C@]43C)[C@@H]2C1	0.1 to 1 µM	–
CC1(C)C(=O)CC[C@]2(C)[C@H]3C(=O)C=C4[C@@H]5C[C@@](C)(C(=O)O)CC[C@]5(C)CC[C@@]4(C)[C@]3(C)CC[C@@H]12	> 1 µM	–
CC1(C)C(=O)CC[C@]2(C)[C@H]3C(=O)C=C4[C@@H]5C[C@@](C)(C(=O)OCCN6CCCC6)CC[C@]5(C)CC[C@@]4(C)[C@]3(C)CC[C@@H]12	0.02 to 0.1 µM	–
CC1(C)C(=O)CC[C@]2(C)[C@H]3C(=O)C=C4[C@@H]5C[C@@](C)(C(=O)OCCN6CCCCC6)CC[C@]5(C)CC[C@@]4(C)[C@]3(C)CC[C@@H]12	0.02 to 0.1 µM	–
CC1(C)C(=O)C(C#N)=C[C@]2(C)C3=CC=C4[C@@H]5C[C@@](C)(C(=O)O)CC[C@]5(C)CC[C@@]4(C)[C@]3(C)CC[C@@H]12	> 1 µM	–
CCCN(CCC)c1nc2c(s1)C[C@]1(C)[C@H]3C(=O)C=C4[C@@H]5C[C@@](C)(C(=O)O)CC[C@]5(C)CC[C@@]4(C)[C@]3(C)CC[C@H]1C2(C)C	0.02 to 0.1 µM	–
CC1(C)C(=O)C(C#N)=C[C@]2(C)[C@H]3C(=O)C=C4[C@@H]5C[C@@](C)(C(=O)O)CC[C@]5(C)CC[C@@]4(C)[C@]3(C)CC[C@@H]12	> 1 µM	–
CC1(C)C(=O)CC[C@]2(C)[C@H]3C(=O)C=C4[C@H]5C[C@@](C)(C(=O)OCCN6CCCCC6)CC[C@]5(C)CC[C@@]4(C)[C@]3(C)CC[C@@H]12	0.02 to 0.1 µM	–
CCN(CC)c1nc2c(s1)C[C@]1(C)[C@H]3C(=O)C=C4[C@@H]5C[C@@](C)(C(=O)O)CC[C@]5(C)CC[C@@]4(C)[C@]3(C)CC[C@H]1C2(C)C	0.02 to 0.1 µM	–
CCN(CC)CCOC(=O)[C@@]1(C)CC[C@]2(C)CC[C@]3(C)C(=CC(=O)[C@@H]4[C@@]5(C)Cc6sc(N(C)C)nc6C(C)(C)[C@@H]5CC[C@]43C)[C@@H]2C1	0.02 to 0.1 µM	–
CC1(C)C(=O)C(Br)=C[C@]2(C)[C@H]3C(=O)C=C4[C@H]5C[C@@](C)(C(=O)O)CC[C@]5(C)CC[C@@]4(C)[C@]3(C)CC[C@@H]12	0.1 to 1 µM	–
CC1(C)C(=O)C(Cl)=C[C@]2(C)C3=CC=C4[C@@H]5C[C@@](C)(C(=O)O)CC[C@]5(C)CC[C@@]4(C)[C@]3(C)CC[C@@H]12	> 1 µM	–
CC1(C)C(=O)CC[C@]2(C)[C@H]3C(=O)C=C4[C@H]5C[C@@](C)(C(=O)OCCN6CCCC6)CC[C@]5(C)CC[C@@]4(C)[C@]3(C)CC[C@@H]12	0.02 to 0.1 µM	–
CC1(C)C(=O)CC[C@]2(C)[C@H]3C(=O)C=C4[C@@H]5C[C@@](C)(C(=O)OCCN6CCOCC6)CC[C@]5(C)CC[C@@]4(C)[C@]3(C)CC[C@@H]12	0.02 to 0.1 µM	–
CN(C)CCOC(=O)[C@@]1(C)CC[C@]2(C)CC[C@]3(C)C(=CC(=O)[C@@H]4[C@@]5(C)CC[C@H](O)C(C)(C)[C@@H]5CC[C@]43C)[C@@H]2C1	> 1 µM	–
CN(C)CCOC(=O)[C@@]1(C)CC[C@]2(C)CC[C@]3(C)C(=CC=C4[C@@]5(C)C=C(C#N)C(=O)C(C)(C)[C@@H]5CC[C@]43C)[C@@H]2C1	0.1 to 1 µM	–
CCN(CC)CCCCCOC(=O)[C@@]1(C)CC[C@]2(C)CC[C@]3(C)C(=CC(=O)[C@@H]4[C@@]5(C)CCC(=O)C(C)(C)[C@@H]5CC[C@]43C)[C@@H]2C1	0.02 to 0.1 µM	–
CC1(C)C(=O)C(I)=C[C@]2(C)[C@H]3C(=O)C=C4[C@@H]5C[C@@](C)(C(=O)O)CC[C@]5(C)CC[C@@]4(C)[C@]3(C)CC[C@@H]12	> 1 µM	–
CC1(C)C(=O)CC[C@]2(C)[C@H]3C(=O)C=C4[C@H]5C[C@@](C)(C(=O)OCCN6CCOCC6)CC[C@]5(C)CC[C@@]4(C)[C@]3(C)CC[C@@H]12	0.02 to 0.1 µM	–
CC1(C)C(=O)C(O)=C[C@]2(C)[C@H]3C(=O)C=C4[C@@H]5C[C@@](C)(C(=O)O)CC[C@]5(C)CC[C@@]4(C)[C@]3(C)CC[C@@H]12	> 1 µM	–
CC1(C)C(=O)CC[C@]2(C)C3=CC=C4[C@@H]5C[C@@](C)(C(=O)O)CC[C@]5(C)CC[C@@]4(C)[C@]3(C)CC[C@@H]12	> 1 µM	–

From patent EP4831188A1, “GLYCYRRHETINIC ACID DERIVATIVE AND USE THEREOF” (dated 2026)
